Earlier results as cited in PMC9785542, “Discovery of 1-Benzhydryl-Piperazine-Based HDAC Inhibitors with Anti-Breast Cancer Activity: Synthesis, Molecular Modeling, In Vitro and In Vivo Biological Evaluation” (Pharmaceutics, 2022).

Protein sequences, listed by entry. Tags and fused reporters are not part of them. Lines headed by an entry give the natural chain unless they say otherwise; changes in a name come on top.
UniProt O15379: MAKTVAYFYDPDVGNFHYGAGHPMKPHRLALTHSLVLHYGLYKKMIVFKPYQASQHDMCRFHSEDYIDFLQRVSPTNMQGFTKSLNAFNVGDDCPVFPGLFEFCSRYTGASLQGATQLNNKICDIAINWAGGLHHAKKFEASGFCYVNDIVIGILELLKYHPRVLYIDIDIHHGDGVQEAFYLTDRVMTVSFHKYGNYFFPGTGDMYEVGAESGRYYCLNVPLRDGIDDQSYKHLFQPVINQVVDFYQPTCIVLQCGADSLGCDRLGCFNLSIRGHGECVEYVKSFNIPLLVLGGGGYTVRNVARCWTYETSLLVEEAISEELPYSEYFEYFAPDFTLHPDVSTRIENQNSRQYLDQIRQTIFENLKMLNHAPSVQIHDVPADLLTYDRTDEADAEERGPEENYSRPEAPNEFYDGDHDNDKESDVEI

Target: Human recombinant HDAC-3/NcoR2 (Homo sapiens, UniProt O15379)
Settings: read-out: HDAC Inhibition, IC50, HDAC3; cited from earlier work

CCCC(CCC)C(=O)O [Valproic acid]
IC50: > 1000 µM
